scFv variants of Ab-14 (heavy chain) against a SARS-CoV-2 spike peptide

All variants were tested on one target, the spike HR2 peptide PDVDLGDISGINAS (SARS-CoV-2).

Each scFv is VH, a 15-residue (Gly4Ser)3 linker, VL, as in the parent Ab-14, and differs from it in the CDRs of the heavy chain only.
VH: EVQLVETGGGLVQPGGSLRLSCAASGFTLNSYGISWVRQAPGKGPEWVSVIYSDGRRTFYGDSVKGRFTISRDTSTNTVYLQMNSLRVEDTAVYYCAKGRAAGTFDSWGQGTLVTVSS
VL: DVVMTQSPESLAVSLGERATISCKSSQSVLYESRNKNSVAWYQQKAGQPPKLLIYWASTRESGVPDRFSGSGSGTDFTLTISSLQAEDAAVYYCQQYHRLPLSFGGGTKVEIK

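The starting antibody came from a phage panning campaign against this peptide. Designed CDR sequences, proposed from the first random library and measured here. Their group label is 14H_GPLM_HC (GPLM: also part of the Gaussian process libraries; HC: hill climbing; a sequence that several methods proposed may carry one label only). The assay is AlphaSeq: two haploid yeast populations carry antibody and antigen on their surface. Binding brings cells together so that they mate, and sequencing counts the barcode pairs among the diploids. Each replicate has its own calibration line, from reference interactions of the BCL2 family. Mating was done six times.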

The parent's heavy chain CDRs are GFTLNSYGIS, VIYSDGRRTFYGDSVK, GRAAGTFDS; each variant's own CDRs replace them letter for letter. Scale: log10 of Kd in nM, estimated from mating counts; low values are strong binders. The mean shown is taken over the replicates in which the pair was detected. An entry "nd" has no value in the source: the pair was not observed among the diploids in that replicate. This suggests poor binding but is not conclusive. The authors averaged sequences with at least three values out of six and counted those with two or fewer as poor binders. The parent sequence was in this pool as ten entries: three were never detected, three once, and four in most replicates, with averages from 0.34 to 2.37. Nonspecific signal, from three strains lacking the peptide, appeared in 1% of pairings of all heavy chain designs, centred on 2.08 (5% of these signals below 0.84); values are not corrected for it. For each scFv, signals with the empty controls are counted beside the result, with their mean in brackets. The range of this assay differs from that of the first round, and the authors advise against merging the two.

CDR-H1 | CDR-H2 | CDR-H3 | log10 Kd (nM) by replicate | log10 Kd (nM), mean | control signals
GFTLNEYGIS | VIYSDGRRTFYGDSVK | GRVAGTFDF | 0.31 0.07 -0.15 0.16 0.00 0.11 | 0.08 | 0 of 18
GFTLNEYGIS | VIYSDGVRTFYSDSVK | GRAAGTFDS | -0.06 0.06 -0.30 0.18 0.03 -0.01 | -0.01 | 0 of 18
GFTLDSYGIS | VIYSDGRRTFYGDSVK | GRAAGTFED | nd 1.73 nd 3.73 nd 2.99 | 2.82 | 1 of 18 (3.72)
GFTIESYGIS | VIYSDGRRTFYSDSVK | GRAAGTFDS | 1.81 3.89 1.69 nd 1.74 1.56 | 2.14 | 0 of 18
GFTLNDYGIS | VIYSDGRRTFYGDSVK | GRVAGTFDQ | 0.31 0.39 0.94 -0.12 0.40 0.29 | 0.37 | 0 of 18
GFSLNEYGIS | VIYSDGRRTFYGDSVK | GRAAVTFDS | -0.35 -0.33 -0.45 -0.45 -0.20 -0.44 | -0.37 | 0 of 18
GFTLNSYGIS | VIYADGRRTFYGDSVK | GRAAGTFKM | 0.13 -0.01 0.83 0.11 -0.88 0.81 | 0.16 | 0 of 18
GFTLNEYGIS | VIYADGRRTFYGDSVK | GRAAGTFIS | 1.12 nd 2.05 nd nd 2.10 | 1.76 | 0 of 18
GFTLNQYGIS | VIYSDGQRTFYSDSVK | GEAAGTFDS | 0.21 0.46 0.21 -0.06 0.08 0.38 | 0.21 | 0 of 18
GFTLNSYGIS | VIYSDGRRTFYLDSVK | GQLAGTFDS | nd nd nd nd nd nd | nd | 0 of 18
GFTLNEYGIS | VIYSDGRRTFYGESVK | GRAAVTFDQ | nd nd nd nd nd nd | nd | 0 of 18
GFGLNEYGIS | VIYSDGRRTFYMDSVK | GRTAGTFDS | nd nd nd 1.22 nd nd | 1.22 | 0 of 18
GFGLNEYGIS | VIYSDGRRTFYIDSVK | GRAAGTFDS | nd 0.01 0.48 0.58 0.86 0.04 | 0.39 | 0 of 18
GFTLNQYGIS | VIYSDGRRTFYSDSVK | GKAAGTFDS | 0.37 0.10 0.13 0.08 0.39 0.53 | 0.27 | 0 of 18
GFSLNQYGIS | VIYSDGRRTFYSDSVK | GKAAGTFDS | 0.00 -0.22 -0.23 -0.31 -0.13 0.20 | -0.11 | 2 of 18 (3.52)
GFTLNEYGIS | VIYSDGRRTWYGDSVK | GRFAGTFDS | 0.66 0.26 0.61 0.51 0.32 0.58 | 0.49 | 1 of 18 (1.83)
GMTLNDYGIS | VIYSDGRRTQYIDSVK | GRAAGTFDS | 1.22 1.43 1.12 1.96 0.78 1.58 | 1.35 | 2 of 18 (1.47)
GFTLDSYGIS | VIYSDGRRTFYGDSVK | GRAAGTFDK | 0.37 nd nd nd nd nd | 0.37 | 0 of 18
GFQLNEYGIS | VIYSDGRRTFYGDSVK | GQAAGTFDQ | 1.22 0.79 -0.42 -0.08 0.47 0.37 | 0.39 | 0 of 18
GFTLNSYGIS | VIYSDGRRTFYSDSVK | GRAGGMFDS | nd nd nd nd 2.47 nd | 2.47 | 0 of 18
GFDLNSYGIS | VIYSDGRRTFYGDSVK | GRAAGHFKS | nd nd nd nd nd nd | nd | 0 of 18
GFTLDSYGIS | VIYSDGRRTFYGDAVK | GRTAGTFDS | 0.73 0.44 0.76 1.79 1.38 0.75 | 0.98 | 0 of 18
GFTLNEYGIS | VIYSDGRRTFYTDSVK | GKFAGTFDS | nd nd nd nd 0.81 0.67 | 0.74 | 0 of 18
GFTLNSYGIS | VIYSDGRRTFYSDSVK | GRMAGTFDS | 1.26 1.31 0.42 0.23 0.72 0.56 | 0.75 | 0 of 18
GFTLNAYGIS | VIYSDGRRTFYGDSVK | GRAAVTFDQ | nd nd nd nd nd nd | nd | 0 of 18
GFDLNSYGIS | VIYSDGRRTFYGDSVK | GEAAGTFNS | 0.41 0.33 0.33 0.06 0.50 -0.09 | 0.26 | 0 of 18
GFTLNDYGIS | VIYSDGRRTFYHDSVK | GRAAGTFVS | nd nd nd nd nd nd | nd | 0 of 18
GFTLNEYGIS | VIYSDGRRTFYGWSVK | GRAAVTFDQ | nd nd nd nd nd nd | nd | 0 of 18
GFTLDQYGIS | VIYSDGRRTFYSDSVK | GRAAGTFDS | -0.16 -0.22 -0.61 -0.19 -0.86 -0.78 | -0.47 | 0 of 18
GFTLNEYGIS | VIYSDGRRTFYGDSVK | GRAAVTFDD | nd nd nd nd nd nd | nd | 1 of 18 (1.70)

Picked from the list: the 3 lowest averages where every replicate gave a value.

CDR-H1 | CDR-H2 | CDR-H3 | log10 Kd (nM) by replicate | log10 Kd (nM), mean | control signals
GFTLDQYGIS | VIYSDGRRTFYSDSVK | GRAAGTFDS | -0.16 -0.22 -0.61 -0.19 -0.86 -0.78 | -0.47 | 0 of 18
GFSLNEYGIS | VIYSDGRRTFYGDSVK | GRAAVTFDS | -0.35 -0.33 -0.45 -0.45 -0.20 -0.44 | -0.37 | 0 of 18
GFSLNQYGIS | VIYSDGRRTFYSDSVK | GKAAGTFDS | 0.00 -0.22 -0.23 -0.31 -0.13 0.20 | -0.11 | 2 of 18 (3.52)

Reference: Li et al. 2023, doi:10.1038/s41467-023-39022-2. File: FLAb, binding data.